Measured values from US20040106802A1, “Novel compounds and therapeutic uses thereof” (TORRENT PHARMACEUTICALS LTD., priority 2002, published 2004).

By UniProt entry, the sequences of proteins in these tests, tags left out. Where a name states a change or a piece, a line headed by the entry shows the natural chain unless it says otherwise.
UniProt P22411: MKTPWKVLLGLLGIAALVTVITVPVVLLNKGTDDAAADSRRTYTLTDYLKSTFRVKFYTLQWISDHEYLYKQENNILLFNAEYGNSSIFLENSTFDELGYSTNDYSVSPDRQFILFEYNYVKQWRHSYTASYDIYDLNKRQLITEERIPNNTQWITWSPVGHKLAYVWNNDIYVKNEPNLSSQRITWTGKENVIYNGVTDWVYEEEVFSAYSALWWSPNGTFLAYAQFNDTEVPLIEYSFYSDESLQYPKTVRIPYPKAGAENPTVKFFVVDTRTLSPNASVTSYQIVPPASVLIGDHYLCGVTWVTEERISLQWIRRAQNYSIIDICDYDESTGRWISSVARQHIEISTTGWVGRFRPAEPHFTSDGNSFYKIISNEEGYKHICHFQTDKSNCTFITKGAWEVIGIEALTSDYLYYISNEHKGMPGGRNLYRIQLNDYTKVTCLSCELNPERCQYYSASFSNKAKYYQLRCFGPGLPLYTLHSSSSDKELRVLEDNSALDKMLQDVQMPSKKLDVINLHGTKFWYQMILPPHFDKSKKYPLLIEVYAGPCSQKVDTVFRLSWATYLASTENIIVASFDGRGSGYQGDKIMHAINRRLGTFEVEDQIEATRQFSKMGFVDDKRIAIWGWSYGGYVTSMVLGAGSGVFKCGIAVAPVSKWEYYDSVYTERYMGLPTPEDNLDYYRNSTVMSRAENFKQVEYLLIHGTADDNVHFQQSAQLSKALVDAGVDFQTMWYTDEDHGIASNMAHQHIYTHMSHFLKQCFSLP

molecular target: T1, Porcine DPP-IV (Sus scrofa, UniProt P22411); test: Assay of DPP-IV enzyme inhibitory activity (spectrophotometric, Gly-Pro-pNA cleavage); format: biochemical; conditions: Porcine DPP-IV, Gly-Pro-pNA substrate, 30° C.; mean ± SD of three experiments except compound Nos. 133 & 139; read-out: IC50 (μM) Mean ± SD, inhibitory activity on DPP-IV enzyme activity
T1 construct: purchased Sigma-Aldrich Germany
Method: Assay of DPP-IV Enzyme Inhibitory Activity.
The assay method is a modified method (as described by Welch et al, 1998) based on spectrophotometric determination of the product formed by penultimate proline cleaving activity of the enzyme.
Assay protocol involves incubation of the enzyme dipeptidyl peptidase IV with the test substance at 30° C. for 30 min followed by addition of this reaction mixture to the substrate Gly-Pro-pNA that was equilibrated at 30° C. for 2 min. The enzyme cleaves the substrate at penultimate proline and releases p-nitroanilide, the optical density of which is measured at 385 nm. The formation of p-nitroanilide will be reduced in the presence of inhibitor. […] The activity of molecule is expressed in terms of % inhibition. At least three different concentrations were tried out for each of the test substances. The percentage inhibitions for each of the concentrations were plotted and an IC50 of the test compound was worked out. The enzyme inhibitory activity of different test compounds were compared based on the IC50 values.
The percentage inhibition % I, is calculated using the formula:
% I=[(1−vi/v0)]*100 where vi and v0 are the Vmax values with and without the test substance, respectively.
Substrate solution: 0.5 mM in 45 mM phosphate buffer
Substrate used: Gly-Pro-p-nitroanilide (Source: Sigma-Aldrich Co. Germany)
3.288 mg substrate in 1 ml 45 mM phosphate buffer was prepared as stock solution. 0.25 ml of this stock solution was diluted to 5 ml to get 0.5 mM substrate solution (90 μl to be added in each well). The stock solution of the substrate was used within three days of preparation.
Enzyme solution: Porcine DPP-IV (Sigma-Aldrich Germany) was used throughout the study. 0.4 mU in 80 μl of Tris. HCl buffer was prepared. Fresh solutions were prepared everyday for the assays.
Various concentrations of inhibitor were used: 0.391 μM, 0.781 μM, and 3.125 μM. Solutions of inhibitor were prepared and used on the same day.
Different concentrations of inhibitor (compound 95), vehicle, substrate and enzyme were prepared as per standard procedures. 280 μl of enzyme solution (0.4-mU/80 μl in Tris HCl buffer) was added to the eppendorf containing 70 μl solution of inhibitor or vehicle and mixed. This reaction mixture was incubated for 30 min at 30° C. The 96 well plate containing substrate solution was thermally equilibrated in the spectrophotometer for 2 min at 30° C. Later 100 μl of the enzyme-inhibitor pre-incubation solution was added to respective wells in a 96 well plate. Each concentration of the inhibitor was tested in triplicates.
The rate of change in UV absorbance (in presence of various concentrations of the inhibitor) was measured at 385 nm, with respect to wells containing only 0.5 mM substrate in 45 mM phosphate buffer as blank at every 10 min for 2 hours after adding enzyme-inhibitor mixture to wells containing substrate solution.

Row | SMILES | IC50
1 | N#CC1CSCN1C(=O)CN(N)C1CCN(CC(=O)NCCc2cccs2)CC1 (centres unmarked) [compound 127, 3-[1-oxo-2-(1-(1-(2-oxo-2-(2-(thiophene-2-yl)ethyl)aminoethyl)piperidine-4-yl))hydrazino]ethyl-4-cyanothiazolidine, bis-trifluoroacetate] | 0.415 ± 0.03 µM
2 | N#CC1CSCN1C(=O)CN(N)C1CCN(CC(=O)Nc2ccc(Cl)cc2)CC1 (centres unmarked) [Compound No. 105, 3-[1-oxo-2-[1-(1-(2-oxo-2(4-chlorophenyl)aminoethyl)piperidin-4-yl)]hydrazino]ethyl-4-cyanothiazolidine bis-trifluoroacetate] | 0.258 ± 0.027 µM
3 | N#CC1CSCN1C(=O)CN(N)C1CCN(CC(=O)Nc2cccnc2Cl)CC1 (centres unmarked) [compound 141, 3-[1-oxo-2-(1-(1-(2-oxo-2-(2-chloropyridin-3-yl)aminoethyl)piperidin-4-yl))hydrazino]ethyl-4-cyano thiazolidine, trihydrochloride] | 0.144 ± 0.003 µM
4 | N#CC1CSCN1C(=O)CN(N)C1CCN(CC(=O)Nc2ccc3c(c2)OCCO3)CC1 (centres unmarked) [Compound No. 104, 3-[1-oxo-2-[1-(1-(2-oxo-2(2,3dihydrobenzo(1,4)dioxan-6-yl)aminoethyl)piperidin-4-yl)]hydrazino]ethyl-4-cyano-thiazolidine bis-trifluoroacetate] | 0.222 ± 0.023 µM
5 | N#CC1CSCN1C(=O)CN(N)C1CCN(CC(=O)Nc2ccc(Cl)cc2)CC1 (centres unmarked) [compound 143, 3-[1-oxo-2-(1-(1-(2-oxo-2-(4-chlorophenyl)aminoethyl)piperidin-4-yl))ydrazino]ethyl-4-cyano thiazolidine, dihydrochloride] | 0.547 ± 0.045 µM
6 | N#C[C@H]1CSCN1C(=O)CN(N)C1CCN(CC(=O)Nc2ccc(Cl)cn2)CC1 [compound 116, 3-[1-oxo-2-(1-(1-(2-oxo-2-(5-chloropyridin-2-yl)aminoethyl)piperidin-4-yl)) hydrazino]ethyl(s)-(+)-4-cyanothiazolidine tris-trifluoroacetate] | 4.1 ± 0.4 µM
7 | N#CC1CSCN1C(=O)CN(N)C1CCN(CC(N)=O)CC1 (centres unmarked) [compound 118] | 0.817 ± 0.04 µM
8 | N#Cc1ccc(CN2CCC(N(N)CC(=O)N3CSCC3C#N)CC2)cc1 (centres unmarked) [Compound No. 52, 3-[1-Oxo-2-(1-(1-(4-cyanophenylmethyl)-piperidin-4-yl) hydrazino)]ethyl-4-cyanothiazolidine bis trifluoroacetate] | 0.71 ± 0.06 µM
9 | N#CC1CSCN1C(=O)CN(N)C1CCN(CC(=O)Nc2cccnc2Cl)CC1 (centres unmarked) [compound 121] | 0.119 ± 0.015 µM
10 | N#CC1CSCN1C(=O)CN(N)C1CCN(C(=O)Cc2cccnc2)CC1 (centres unmarked) [compound 137, 3-[1-oxo-2-(1-(1-(3-pyridylacetyl)piperidine-4-yl))hydrazino]ethyl-4-cyanothiazolidine, bis-trifluoroacetate] | 0.667 ± 0.062 µM

same assay, conditions: read-out: dipeptidyl peptidase-IV inhibitory IC50's in the range

Row | SMILES | IC50
11 | N#CC1CSCN1C(=O)CN(N)C1CCN(CC(=O)Nc2ccc3c(c2)OCCO3)CC1 (centres unmarked) [Compound No. 104, 3-[1-oxo-2-[1-(1-(2-oxo-2(2,3dihydrobenzo(1,4)dioxan-6-yl)aminoethyl)piperidin-4-yl)]hydrazino]ethyl-4-cyano-thiazolidine bis-trifluoroacetate] | 0.088 to 0.25 µM

Counter-ions that a name gives are not always drawn.
